In patent US12171806B2, “Therapeutic regimens and methods for lowering blood glucose and/or body weight using GLP-1R and GCGR balanced agonists” (priority 2021, dated 2024):
Entries after “also recorded” stand apart in the source; their conditions may differ.

Assay: Phase 1 MAD study of ALT-801: adverse events (TEAEs), safety overview
[1] = 1.2 mg and 1.8 mg, 6-week interim

In the case of `CC[C@H](C)[C@H](NC(=O)[C@H](Cc1ccccc1)NC(=O)[C@H](CCC(=O)O)NC(=O)[C@@H]1CCCCNC(=O)CC[C@H](NC(=O)[C@H](CC(=O)O)NC(=O)[C@H](CC(C)C)NC(=O)[C@H](Cc2ccc(O)cc2)NC(=O)[C@H](CCCCN)NC(=O)[C@H](CO)NC(=O)[C@H](Cc2ccc(O)cc2)NC(=O)[C@H](CC(=O)O)NC(=O)[C@H](CO)NC(=O)[C@@H](NC(=O)[C@H](Cc2ccccc2)NC(=O)[C@@H](NC(=O)CNC(=O)[C@H](CCC(N)=O)NC(=O)C(C)(C)NC(=O)[C@@H](N)Cc2c[nH]cn2)[C@@H](C)O)[C@@H](C)O)C(=O)N[C@@H](CCCCNC(=O)[C@H]2O[C@@H](OCCCCCCCCCCCCCCCCCC(=O)O)[C@H](O)[C@@H](O)[C@@H]2O)C(=O)N[C@@H](C)C(=O)N[C@@H](C)C(=O)N1)C(=O)N[C@@H](CCC(N)=O)C(=O)N[C@@H](Cc1c[nH]c2ccccc12)C(=O)N[C@@H](CC(C)C)C(=O)N[C@@H](CC(C)C)C(=O)N[C@@H](CCC(N)=O)C(=O)N[C@H](C(N)=O)[C@@H](C)O` [ALT-801, pemvidutide], the “Constipation, Mild, % of subjects” value (1.2 mg SC once weekly) was “(0.0%)”, the “Constipation, Moderate, % of subjects” value (1.2 mg SC once weekly) was “(0.0%)” and the “Diarrhea, Mild, % of subjects” value (1.2 mg SC once weekly) was “(0.0%)”. For the same compound, the “Diarrhea, Moderate, % of subjects” value (1.2 mg SC once weekly) was “(0.0%)”, the “Hyperglycemia, % of subjects” value (1.2 mg SC once weekly) was “(0.0%)” and the “Nausea, Mild, % of subjects” value (1.2 mg SC once weekly) was “(14.3%)”. The “Nausea, Moderate, % of subjects” value (1.2 mg SC once weekly) was “(14.3%)”, the “Vomiting, Mild, % of subjects” value (1.2 mg SC once weekly) was “(14.3%)” and the “Vomiting, Moderate, % of subjects” value (1.2 mg SC once weekly) was “(0.0%)”. For the same compound, the “reports of vomiting, diarrhea or constipation” value [1] was “no reports of vomiting, diarrhea or constipation”, the tolerability [1] was “well-tolerated without dose titration” and the “Constipation, Mild, % of subjects” value (1.8 mg SC once weekly) was “(11.1%)”. For the same compound, the “Constipation, Moderate, % of subjects” value (1.8 mg SC once weekly) was “(11.1%)”, the “Diarrhea, Mild, % of subjects” value (1.8 mg SC once weekly) was “(0.0%)” and the “Diarrhea, Moderate, % of subjects” value (1.8 mg SC once weekly) was “(0.0%)”. The “Hyperglycemia, % of subjects” value (1.8 mg SC once weekly) was “(0.0%)”, the “Nausea, Mild, % of subjects” value (1.8 mg SC once weekly) was “(55.6%)” and the “Nausea, Moderate, % of subjects” value (1.8 mg SC once weekly) was “(11.1%)”. For the same compound, the “Vomiting, Mild, % of subjects” value (1.8 mg SC once weekly) was “(11.1%)”, the “Vomiting, Moderate, % of subjects” value (1.8 mg SC once weekly) was “(11.1%)” and the “severity of nausea events” value (1.8 mg, 6-week interim) was “mild in severity”. The “Constipation, Mild, % of subjects” value (2.4 mg SC once weekly) was “(18.2%)”, the “Constipation, Moderate, % of subjects” value (2.4 mg SC once weekly) was “(9.1%)” and the “Diarrhea, Mild, % of subjects” value (2.4 mg SC once weekly) was “(18.2%)”. The “Diarrhea, Moderate, % of subjects” value (2.4 mg SC once weekly) was “(0.0%)”, the “Hyperglycemia, % of subjects” value (2.4 mg SC once weekly) was “(0.0%)” and the “Nausea, Mild, % of subjects” value (2.4 mg SC once weekly) was “(45.5%)”. The “Nausea, Moderate, % of subjects” value (2.4 mg SC once weekly) was “(45.5%)”, the “Vomiting, Mild, % of subjects” value (2.4 mg SC once weekly) was “(45.5%)” and the “Vomiting, Moderate, % of subjects” value (2.4 mg SC once weekly) was “(27.3%)”. The “hyperglycemic AEs” value (12 weeks) was “no hyperglycemic AEs”, the “severity of Treatment-Emergent Adverse Events” value (12 weeks) was “mild to moderate” and the tolerability (12 weeks, 1.2, 1.8 and 2.4 mg) was “well-tolerated without the need for dose titration; also recorded: well-tolerated”. The “elevated ALT levels” value (12 weeks, resolved after a pause in dosing) was “One patient experienced elevated ALT levels”, the “Any TEAE; Mild; %” value (M1 1.2 mg (N = 7)) was “(14.3%)” and the “Any TEAE; Mild; n” value (M1 1.2 mg (N = 7)) was 1. For the same compound, the “Any TEAE; Moderate; %” value (M1 1.2 mg (N = 7)) was “(28.6%)”, the “Any TEAE; Moderate; n” value (M1 1.2 mg (N = 7)) was 2 and the “Any TEAE; PLT; %” value (M1 1.2 mg (N = 7)) was “(0.0%)”. For the same compound, the “Any TEAE; PLT; n” value (M1 1.2 mg (N = 7)) was 0, the “Any TEAE; Severe; %” value (M1 1.2 mg (N = 7)) was “(0.0%)” and the “Any TEAE; Severe; n” value (M1 1.2 mg (N = 7)) was 0. The “TEAE Abdominal discomfort; Mild; %” value (M1 1.2 mg (N = 7)) was “(0.0%)”, the “TEAE Abdominal discomfort; Mild; n” value (M1 1.2 mg (N = 7)) was 0 and the “TEAE Abdominal discomfort; Moderate; %” value (M1 1.2 mg (N = 7)) was “(0.0%)”. For the same compound, the “TEAE Abdominal discomfort; Moderate; n” value (M1 1.2 mg (N = 7)) was 0, the “TEAE Abdominal discomfort; PLT; %” value (M1 1.2 mg (N = 7)) was “(0.0%)” and the “TEAE Abdominal discomfort; PLT; n” value (M1 1.2 mg (N = 7)) was 0. For the same compound, the “TEAE Abdominal discomfort; Severe; %” value (M1 1.2 mg (N = 7)) was “(0.0%)”, the “TEAE Abdominal discomfort; Severe; n” value (M1 1.2 mg (N = 7)) was 0 and the “TEAE Abdominal distension; Mild; %” value (M1 1.2 mg (N = 7)) was “(0.0%)”. For the same compound, the “TEAE Abdominal distension; Mild; n” value (M1 1.2 mg (N = 7)) was 0, the “TEAE Abdominal distension; Moderate; %” value (M1 1.2 mg (N = 7)) was “(0.0%)” and the “TEAE Abdominal distension; Moderate; n” value (M1 1.2 mg (N = 7)) was 0. The “TEAE Abdominal distension; PLT; %” value (M1 1.2 mg (N = 7)) was “(0.0%)”, the “TEAE Abdominal distension; PLT; n” value (M1 1.2 mg (N = 7)) was 0 and the “TEAE Abdominal distension; Severe; %” value (M1 1.2 mg (N = 7)) was “(0.0%)”. For the same compound, the “TEAE Abdominal distension; Severe; n” value (M1 1.2 mg (N = 7)) was 0, the “TEAE Abdominal pain; Mild; %” value (M1 1.2 mg (N = 7)) was “(0.0%)” and the “TEAE Abdominal pain; Mild; n” value (M1 1.2 mg (N = 7)) was 0. The “TEAE Abdominal pain; Moderate; %” value (M1 1.2 mg (N = 7)) was “(0.0%)”, the “TEAE Abdominal pain; Moderate; n” value (M1 1.2 mg (N = 7)) was 0 and the “TEAE Abdominal pain; PLT; %” value (M1 1.2 mg (N = 7)) was “(0.0%)”. For the same compound, the “TEAE Abdominal pain; PLT; n” value (M1 1.2 mg (N = 7)) was 0, the “TEAE Abdominal pain; Severe; %” value (M1 1.2 mg (N = 7)) was “(0.0%)” and the “TEAE Abdominal pain; Severe; n” value (M1 1.2 mg (N = 7)) was 0. For the same compound, the “TEAE Anaemia; Mild; %” value (M1 1.2 mg (N = 7)) was “(0.0%)”, the “TEAE Anaemia; Mild; n” value (M1 1.2 mg (N = 7)) was 0 and the “TEAE Anaemia; Moderate; %” value (M1 1.2 mg (N = 7)) was “(0.0%)”. For the same compound, the “TEAE Anaemia; Moderate; n” value (M1 1.2 mg (N = 7)) was 0, the “TEAE Anaemia; PLT; %” value (M1 1.2 mg (N = 7)) was “(0.0%)” and the “TEAE Anaemia; PLT; n” value (M1 1.2 mg (N = 7)) was 0. The “TEAE Anaemia; Severe; %” value (M1 1.2 mg (N = 7)) was “(0.0%)”, the “TEAE Anaemia; Severe; n” value (M1 1.2 mg (N = 7)) was 0 and the “TEAE Application site bruise; Mild; %” value (M1 1.2 mg (N = 7)) was “(0.0%)”. The “TEAE Application site bruise; Mild; n” value (M1 1.2 mg (N = 7)) was 0, the “TEAE Application site bruise; Moderate; %” value (M1 1.2 mg (N = 7)) was “(0.0%)” and the “TEAE Application site bruise; Moderate; n” value (M1 1.2 mg (N = 7)) was 0. The “TEAE Application site bruise; PLT; %” value (M1 1.2 mg (N = 7)) was “(0.0%)”, the “TEAE Application site bruise; PLT; n” value (M1 1.2 mg (N = 7)) was 0 and the “TEAE Application site bruise; Severe; %” value (M1 1.2 mg (N = 7)) was “(0.0%)”. The “TEAE Application site bruise; Severe; n” value (M1 1.2 mg (N = 7)) was 0, the “TEAE Application site erythema; Mild; %” value (M1 1.2 mg (N = 7)) was “(0.0%)” and the “TEAE Application site erythema; Mild; n” value (M1 1.2 mg (N = 7)) was 0. The “TEAE Application site erythema; Moderate; %” value (M1 1.2 mg (N = 7)) was “(0.0%)”, the “TEAE Application site erythema; Moderate; n” value (M1 1.2 mg (N = 7)) was 0 and the “TEAE Application site erythema; PLT; %” value (M1 1.2 mg (N = 7)) was “(0.0%)”. The “TEAE Application site erythema; PLT; n” value (M1 1.2 mg (N = 7)) was 0 and the “TEAE Application site erythema; Severe; %” value (M1 1.2 mg (N = 7)) was “(0.0%)”.
